One compound from US10039764B2, “Treatment and diagnosis of cancer and precancerous conditions using PDE10A inhibitors and methods to measure PDE10A expression” (University of South Alabama, priority 2013, dated 2018) can be followed below.

Sequences of proteins named here, by UniProt entry; tags and fusion partners are left off. Residues count along the entry.
UniProt Q9Y233, 290-1055 limits assumed: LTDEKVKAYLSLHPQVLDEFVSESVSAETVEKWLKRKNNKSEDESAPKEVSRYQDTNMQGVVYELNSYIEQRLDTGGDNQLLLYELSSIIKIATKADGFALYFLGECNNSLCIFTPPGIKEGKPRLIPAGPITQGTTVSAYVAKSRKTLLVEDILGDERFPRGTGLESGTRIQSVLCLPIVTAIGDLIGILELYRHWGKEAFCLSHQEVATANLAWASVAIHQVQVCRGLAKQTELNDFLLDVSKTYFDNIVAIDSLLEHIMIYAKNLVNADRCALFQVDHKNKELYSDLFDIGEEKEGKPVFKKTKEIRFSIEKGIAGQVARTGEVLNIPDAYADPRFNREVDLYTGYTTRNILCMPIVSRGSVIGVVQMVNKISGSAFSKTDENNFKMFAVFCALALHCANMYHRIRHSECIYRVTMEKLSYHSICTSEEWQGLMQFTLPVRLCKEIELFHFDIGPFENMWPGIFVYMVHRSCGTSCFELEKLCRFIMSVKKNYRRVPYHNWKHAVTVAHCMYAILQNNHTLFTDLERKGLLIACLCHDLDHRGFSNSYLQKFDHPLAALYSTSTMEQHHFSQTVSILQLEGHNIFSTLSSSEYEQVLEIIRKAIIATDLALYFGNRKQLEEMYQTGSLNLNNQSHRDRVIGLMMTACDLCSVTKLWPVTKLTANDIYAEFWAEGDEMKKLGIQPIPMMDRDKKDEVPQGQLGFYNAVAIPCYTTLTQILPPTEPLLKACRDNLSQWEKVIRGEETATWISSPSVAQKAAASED

The structures appear in SMILES notation. Where two headings read alike, the source gives them in different places.

This assay concerns the target T1, PDE10A (Homo sapiens, UniProt Q9Y233).
T1 construct: other: substrate cGMP; recombinant enzyme; other: substrate cAMP
Put plainly: IMAP fluorescence polarization PDE assay, PDE10A. It is filed as biochemical. Here is the method: MY5445 was purchased from EMD Millipore. […] Recombinant PDE enzymes were purchased from BPS Biosciences. DMSO was used as the vehicle for testing effects of all compounds.
PDE enzymatic activity was measured using IMAP fluorescence polarization assay (Molecular Devices. Inc.). […] For experiments involving cell extracts, 2×10^5 cells per well were plated on a six-well tissue culture plate 72 hours prior to cell lysis.
The effect of the inhibitors on the growth of human colon tumor and normal colonocytes was measured using the Cell Titer Glo Cell Viability Assay (Promega) as described above. The inhibitory potency toward purified recombinant phosphodiesterase enzymes was measured using the IMAP Phosphodiesterase Assay as described in the Materials and Methods section.
(In fluorescence polarisation assays a small probe gives low polarisation when free and higher when bound to something large.)

On to `COc1ccc(Cc2nccc3cc(OC)c(OC)cc23)cc1OC` [Papaverine, papaverine], for which half-maximal inhibition (IC50) required 22 nM. Moreover, the IC50 (substrate cAMP, recombinant enzyme, read-out: Phosphodiesterase Inhibition PDE10A cAMP IC50) stood at 101 nM.

As usually defined, the IC50 is the midpoint of a concentration-inhibition curve.
